Source: ChEMBL document CHEMBL4732055, “Discovery of fast-acting dual-stage antimalarial agents by profiling pyridylvinylquinoline chemical space via copper catalyzed azide-alkyne cycloadditions” (Eur J Med Chem, 2021)

Assay: Resistant index, ratio of EC50 for antiplasmodial activity against chloroquine-resistant Plasmodium falciparum Dd2 to EC50 for antiplasmodial activity against chloroquine-sensitive Plasmodium falciparum 3D7
Format: functional

SMILES: Clc1ccc2nc(/C=C/c3ccncc3)cc(NCCCCn3cc(CN4CCCC4)nn3)c2c1
- Ratio EC50: 1.32
